These results are taken from patent US11766432B2, “Cleavable conjugates of catechol compounds and water-soluble polymers and methods of treatment using the same” (SERINA THERAPEUTICS, INC., priority 2018, dated 2023).

Read-outs that look alike come from different tables or passages of the source.

For data set [1] the following is noted: total apomorphine, plasma, mean; for t1/2z: female monkeys, single SC injection 1.5 mg/kg (apomorphine equivalents).
Data set [2] in a line: Pharmacokinetics of free apomorphine in plasma after single SC infusion/injection. Conditions: female monkeys, mean n=3; for t1/2z: single SC 1.5 mg/kg (apomorphine equivalents); for CL/Fobs / Vz/Fobs: single SC 1.5 mg/kg.

In general, Tmax refers to the time from dosing to the highest level. For the substance “POZ10p20k[Apo(2-methylpropanoate)(4-triazolebutanoate)]10 [POZ-Apomorphine B]”, the t1/2z in data set [1] amounted to 106.9 h. For the same substance, the Tmax in data set [1] (single SC injection 1.5 mg/kg, 1.5 mg/kg) came to 107 h. Further, in data set [2], the t1/2z stood at 143.4 h, the CL/Fobs is 1,638 ml/h/kg and the Vz/Fobs is given as 313,446 ml/kg.
Regarding “POZ10p20k[Apo(4-butanoate)(4-triazolebutanoate)]10 [POZ-Apomorphine A]”, in data set [1], the t1/2z is 20.9 h. Also, in data set [2], the t1/2z came out at 22.5 h, the CL/Fobs is listed as 2,272 ml/h/kg and the Vz/Fobs was 73,896 ml/kg.
